Patent US20230234957A1, “PROTEIN TAG TO INDUCE LIGAND DEPENDENT DEGRADATION OF PROTEIN/PROTEIN-FUSIONS” (DANA-FARBER CANCER INSTITUTE, INC., priority 2020, published 2023)

Experiments:
BRD4BD1L94V-EGFP [1] = target: T1, BRD4BD1L94V-EGFP (Homo sapiens, UniProt O60885, L94V); experiment: Cellular degradation EGFP/mCherry reporter assay (Acumen) in Flp293T cells; details: read-out: DC50,6h
BRD4BD1L94V-EGFP [2] = target: T1, BRD4BD1L94V-EGFP; experiment: Dual reporter line simultaneous degradation, Acumen EGFP/mCherry read at 5 h; type: cell-based; details: 5 h

Row | Compound | DC50 (BRD4BD1L94V-EGFP [1]) [µM] | cross-degradation of the BRD4BD1L94V-EGFP reporter (BRD4BD1L94V-EGFP [2])
1 | COc1ccc2c(c1)C(c1ccc(Cl)cc1)=N[C@@H]([C@@H](C)C(=O)NCCCCCNC(=O)COc1cccc3c1C(=O)N(C1CCC(=O)NC1=O)C3=O)c1nnc(C)n1-2 (stereo partly drawn) [Compound 1, (2R)-2-((4S)-6-(4-chlorophenyl)-8-methoxy-1-methyl-4H-benzo[f][1,2,4]triazolo [4,3-a][1,4]diazepin-4-yl)-N-(5-(2-((2-(2,6-dioxopiperidin-3-yl)-1,3-dioxoisoindolin-4-yl)oxy)acetamido)pentyl)propanamide] | 0.01 | –
2 | CC[C@H](C(=O)N1CCCC[C@H]1C(=O)O[C@H](CCc1ccc(OC)c(OC)c1)c1ccccc1OCC(=O)NCCCCCCOc1cccc2c1C(=O)N(C1CCC(=O)NC1=O)C2=O)c1cc(OC)c(OC)c(OC)c1 (some centres unmarked) [dTAG13, reference compound] | – | did not show cross-degradation of the reporters
